# Antibody variant affinities, Ab-14 light chain, assay B

Data: MIT Lincoln Laboratory AlphaSeq set, Li et al. 2023, doi:10.1038/s41467-023-39022-2, as distributed in FLAb.

Target peptide (SARS-CoV-2 spike, HR2 region): PDVDLGDISGINAS

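The variants were designed computationally from a first round of random CDR variants and then made and measured. Their group label is 14L_GP_Gen (GP: Gaussian process model; Gen: genetic algorithm; a sequence that several methods proposed may carry one label only). In AlphaSeq, yeast of one mating type display the scFv and yeast of the other type display the target. The frequency of each diploid, read from paired DNA barcodes, reflects how well the two displayed proteins bind. Scores were corrected for input abundance and mapped to Kd with protein pairs of known affinity run in the same pool. There are six technical replicates.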

Parent: Ab-14, a human scFv built as VH, three GGGGS repeats, VL. Only the CDRs of the light chain vary.
VH: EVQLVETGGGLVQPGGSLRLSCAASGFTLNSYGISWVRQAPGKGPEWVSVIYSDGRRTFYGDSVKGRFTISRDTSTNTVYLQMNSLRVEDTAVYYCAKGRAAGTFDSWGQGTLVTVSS
VL: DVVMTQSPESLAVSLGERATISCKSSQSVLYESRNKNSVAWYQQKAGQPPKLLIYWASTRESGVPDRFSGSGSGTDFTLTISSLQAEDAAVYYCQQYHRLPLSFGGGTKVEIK

The parent's light chain CDRs are KSSQSVLYESRNKNSVA, WASTRES, QQYHRLPLS; each variant's own CDRs replace them letter for letter. Values are log10 of the apparent Kd in nM; lower means stronger binding. A mean of the replicates is given; it leaves out those without a signal. Of ten entries with the parent sequence, four were seen in most replicates (averages 0.34 to 2.37), three in one and three in none, so single entries are noisy. The range of this assay differs from that of the first round, and the authors advise against merging the two. In the paper, a design with two or fewer of six values counts as a poor binder. Background: pairings of all light chain designs with three empty control strains gave a value in 4% of cases (median 2.64, 5th percentile 1.59). Values in that range, when seen in few replicates, are hard to tell from nonspecific mating. The control count says in how many pairings with the empty strains this scFv gave a signal, with their mean in brackets.

| CDR-L1 | CDR-L2 | CDR-L3 | log10 Kd (nM) by replicate | mean log10 Kd (nM) | empty controls |
|---|---|---|---|---|---|
| KLSQSVGYESRNKNSVA | GASTRES | QQYHRLPLS | 0.04 / -0.10 / -0.21 / -0.20 / -0.25 / -0.01 | -0.12 | 2/18 (3.26) |
| KLPQSGLYESRNKNSVA | NASTRES | QQYHRLPLS | -0.09 / -0.25 / -0.17 / -0.44 / -0.29 / -0.06 | -0.22 | 0/18 |
| KLSQSHLYESRNKNAVA | NASQRES | QQYHRLPLS | -0.31 / -0.43 / -0.53 / -0.67 / -0.48 / -0.41 | -0.47 | 1/18 (4.35) |
| KLSQSVLYESRNQNSVA | NASTRES | QQYHRLPLS | 0.23 / 0.08 / -0.09 / -0.07 / -0.05 / 0.15 | 0.04 | 2/18 (3.35) |
| KLSQSVLYESRMKNAVA | EASTRES | QQYHRLPLS | -0.38 / -0.11 / -0.50 / -0.60 / -0.42 / -0.16 | -0.36 | 0/18 |
| KLSQSHLYESRMKNNVA | NASTRES | QQYHRLPLS | 0.51 / 0.36 / 0.41 / 0.14 / 0.40 / 0.39 | 0.37 | 1/18 (4.68) |
| KLSQSFLYESRNKNSVA | NASTRMS | QQYHRLPLS | -0.06 / -0.22 / -0.28 / -0.30 / -0.35 / -0.16 | -0.23 | 2/18 (3.15) |
| KSSQSVDYESRNKNNVA | DASTRES | QQYHRLPLS | -0.07 / -0.04 / 0.03 / 0.00 / -0.25 / 0.10 | -0.04 | 0/18 |
| KLSQSHLYESRNKNSVA | NASTREE | QQYHRLPLS | -0.09 / -0.13 / -0.20 / -0.37 / -0.22 / -0.04 | -0.18 | 0/18 |
| KISQSWLYESRNKNSVA | GASTRES | QQYHRLPLS | 0.24 / 0.42 / 0.28 / 0.18 / 0.24 / 0.24 | 0.26 | 0/18 |
| KISQSVLYESRNKNSVA | EASTRCS | QQYHRLPLS | -0.03 / -0.27 / -0.33 / -0.39 / -0.23 / -0.15 | -0.23 | 0/18 |
| KISQSYLYESRNKNSVA | NASYRES | QQYHRLPLS | 0.56 / 0.20 / 0.26 / 0.26 / 0.28 / 0.34 | 0.32 | 2/18 (2.25) |
| KLSQSTLYESRNKNNVA | NASTRES | QQYHRLPLS | -0.02 / -0.19 / -0.47 / -0.37 / -0.45 / -0.19 | -0.28 | 2/18 (3.16) |
| KFQQSVLYESRNKNSVA | NASTRLS | QQYHRLPLS | 0.08 / 0.02 / -0.19 / -0.29 / -0.21 / 0.12 | -0.08 | 1/18 (3.14) |
| KFSQSVLYESRNKNSVA | NASTRCS | QQYHRLPLS | 0.26 / 0.34 / 0.28 / 0.21 / 0.34 / 0.41 | 0.31 | 4/18 (2.80) |
| KVEQSWLYESRNKNSVA | NASTRES | QQYHRLPLS | -0.29 / -0.34 / -0.44 / -0.63 / -0.48 / -0.20 | -0.40 | 1/18 (3.29) |
| KLQQSVLYESRAKNSVA | NASTRES | QQYHRLPLS | 0.07 / -0.01 / -0.07 / -0.08 / -0.01 / 0.12 | 0.00 | 0/18 |
| KMSQSVLMESRNKNSVA | DASTRES | QQYHRLPLS | -0.03 / -0.10 / -0.13 / -0.31 / -0.25 / -0.06 | -0.15 | 1/18 (2.41) |
| KLPQSVLYESRNKNAVA | EASQRES | QQYHRLPLS | -0.23 / -0.49 / -0.48 / -0.57 / -0.64 / -0.37 | -0.46 | 1/18 (3.11) |
| KLPQSHLYESRNKNSVA | QASTRES | QQYHRLPLS | 0.26 / -0.04 / 0.01 / 0.02 / -0.01 / 0.24 | 0.08 | 0/18 |
| KLSESVLYESRNKNSVA | GASTRES | QQYHRLPLS | -0.17 / -0.40 / -0.28 / -0.48 / -0.55 / -0.20 | -0.35 | 0/18 |
| KLSQSVEYESRNKNSVA | HASTRES | QQYHRLPLS | 0.07 / 0.03 / 0.47 / -0.13 / -0.06 / 0.52 | 0.15 | 0/18 |
| KVSQSGLYESRNKNSVA | HASTRES | QQYHRLPLS | 1.06 / 0.55 / 0.74 / 1.11 / 0.65 / 0.30 | 0.74 | 0/18 |
| KLSQSVLYESRNKNSVA | EASTREQ | QDYHRLPLS | 0.70 / 0.71 / 0.93 / 0.52 / 0.48 / 0.74 | 0.68 | 0/18 |
| VLSQSVLYESRNKNSVA | NASTRES | QQYHRLPLS | 0.05 / -0.09 / -0.14 / -0.08 / -0.16 / 0.17 | -0.04 | 0/18 |
| KLPQSVLYESRNKNSVA | NASTRES | QQYHRLPLM | -0.32 / -0.31 / -0.45 / -0.45 / -0.51 / -0.28 | -0.39 | 0/18 |
| KLDQSDLYESRNKNSVA | GASTRES | QQYHRLPLS | -0.06 / -0.18 / -0.36 / -0.41 / -0.34 / -0.20 | -0.26 | 0/18 |
| KFSQSGLYESRNKNSVA | NASTRES | QQYHRLPLS | 0.40 / 0.31 / 0.15 / 0.24 / 0.21 / 0.46 | 0.30 | 2/18 (2.46) |
| KLEQSWEYESRNKNSVA | NASTRES | QQYHRLPLS | -0.17 / -0.29 / -0.29 / -0.26 / -0.21 / -0.30 | -0.25 | 3/18 (2.76) |
| KLPQSVWYESRNKNSVA | SASTRES | QQYHRLPLS | -0.07 / -0.01 / 0.05 / -0.07 / -0.06 / -0.02 | -0.03 | 0/18 |
| KLQQSELYESRNCNSVA | NASTRES | QQYHRLPLS | 0.17 / 0.00 / -0.03 / 0.00 / -0.06 / 0.10 | 0.03 | 2/18 (3.87) |
| KFYQSWLYESRNKNSVA | NASQRES | QQYHRLPLS | 0.02 / -0.11 / -0.22 / 0.02 / -0.05 / 0.06 | -0.05 | 1/18 (2.65) |
| KVSQSDLYESRNKNSVA | NASYRES | QQYHRLPLS | 0.23 / 0.27 / 0.36 / 0.16 / -0.13 / 0.33 | 0.20 | 3/18 (2.90) |
| KLSQSVLYESRVKNNVA | GASTRES | QQYHRLPLS | -0.04 / 0.00 / -0.33 / 0.15 / -0.19 / 0.71 | 0.05 | 0/18 |
| KVSQSVLYESRNKNAVA | EASQRES | QQYHRLPLS | -0.02 / -0.30 / -0.33 / -0.44 / -0.37 / -0.33 | -0.30 | 1/18 (2.61) |
| KLSQSDLYESRNKNSVA | NGSTRES | QQYHRLPLS | 0.57 / 0.35 / 0.21 / 0.10 / 0.14 / 0.36 | 0.29 | 1/18 (2.54) |
| KLSQSVLYESRNKNSVA | NASTRMS | QAYHRLPLS | 0.29 / 0.38 / 0.23 / 0.20 / 0.30 / 0.32 | 0.29 | 4/18 (3.65) |
| KVSQSTLYESRNKNSVA | NASQRES | QQYHRLPLS | 0.31 / 0.23 / 0.06 / 0.26 / 0.17 / 0.32 | 0.23 | 0/18 |
| KLSQSVLYEERNKNSVA | SASQRES | QQYHRLPLS | -0.22 / -0.18 / -0.18 / -0.42 / -0.55 / -0.19 | -0.29 | 0/18 |
| KMSQSELYESRNKNSVA | EASTRES | QQYHRLPLS | -0.02 / 0.10 / -0.33 / 0.14 / -0.01 / 0.09 | 0.00 | 2/18 (3.89) |
| KVSQQHLYESRNKNSVA | NASTRES | QQYHRLPLS | -0.16 / -0.14 / -0.37 / -0.35 / -0.50 / 0.01 | -0.25 | 0/18 |
| HLSQSVLYESRNKNSVA | NASTRLS | QQYHRLPLS | -0.38 / -0.52 / -0.42 / -0.49 / -0.55 / -0.11 | -0.41 | 1/18 (4.27) |
| KLSQSELYESRNKWSVA | NASQRES | QQYHRLPLS | -0.31 / -0.58 / -0.51 / -0.61 / -0.63 / -0.28 | -0.49 | 0/18 |

Picked from the list: the 7 lowest averages where every replicate gave a value.

| CDR-L1 | CDR-L2 | CDR-L3 | log10 Kd (nM) by replicate | mean log10 Kd (nM) | empty controls |
|---|---|---|---|---|---|
| KLSQSELYESRNKWSVA | NASQRES | QQYHRLPLS | -0.31 / -0.58 / -0.51 / -0.61 / -0.63 / -0.28 | -0.49 | 0/18 |
| KLSQSHLYESRNKNAVA | NASQRES | QQYHRLPLS | -0.31 / -0.43 / -0.53 / -0.67 / -0.48 / -0.41 | -0.47 | 1/18 (4.35) |
| KLPQSVLYESRNKNAVA | EASQRES | QQYHRLPLS | -0.23 / -0.49 / -0.48 / -0.57 / -0.64 / -0.37 | -0.46 | 1/18 (3.11) |
| HLSQSVLYESRNKNSVA | NASTRLS | QQYHRLPLS | -0.38 / -0.52 / -0.42 / -0.49 / -0.55 / -0.11 | -0.41 | 1/18 (4.27) |
| KVEQSWLYESRNKNSVA | NASTRES | QQYHRLPLS | -0.29 / -0.34 / -0.44 / -0.63 / -0.48 / -0.20 | -0.40 | 1/18 (3.29) |
| KLPQSVLYESRNKNSVA | NASTRES | QQYHRLPLM | -0.32 / -0.31 / -0.45 / -0.45 / -0.51 / -0.28 | -0.39 | 0/18 |
| KLSQSVLYESRMKNAVA | EASTRES | QQYHRLPLS | -0.38 / -0.11 / -0.50 / -0.60 / -0.42 / -0.16 | -0.36 | 0/18 |